Experimental data taken from patent US6686371B2, “Non-steroidal, tetracylic compounds for estrogen-related treatments” (Akzo Nobel N.V., priority 2000, dated 2004).

Chains of the proteins cited; added tags and fusions are not shown.
UniProt Q92731, whole entry: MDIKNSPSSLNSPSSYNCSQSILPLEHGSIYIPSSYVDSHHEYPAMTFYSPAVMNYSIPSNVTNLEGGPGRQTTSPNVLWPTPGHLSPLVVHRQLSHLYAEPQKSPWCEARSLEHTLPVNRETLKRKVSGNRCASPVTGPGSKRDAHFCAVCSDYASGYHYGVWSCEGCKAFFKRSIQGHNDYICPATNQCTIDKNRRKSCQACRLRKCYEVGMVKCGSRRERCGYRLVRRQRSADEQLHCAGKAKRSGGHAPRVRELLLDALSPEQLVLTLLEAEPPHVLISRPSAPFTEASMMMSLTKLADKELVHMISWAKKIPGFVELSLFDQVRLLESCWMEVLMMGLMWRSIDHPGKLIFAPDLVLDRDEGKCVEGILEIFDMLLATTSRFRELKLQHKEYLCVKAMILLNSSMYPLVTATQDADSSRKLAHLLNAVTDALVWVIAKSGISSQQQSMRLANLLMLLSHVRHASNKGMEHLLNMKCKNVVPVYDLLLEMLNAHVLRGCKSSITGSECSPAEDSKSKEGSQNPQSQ

Target: T1, human estrogen receptor β receptor (hERβ) (Homo sapiens, UniProt Q92731)
T1 construct: expressed in transfected cells; host or cells: Chinese hamster ovary (CHO) cells, stably co-transfected with hERβ, rat oxytocin promoter and luciferase reporter
Experiment: competitive binding to cytoplasmic human estrogen receptor β from recombinant CHO cells
Details: % relative to 17β-estradiol; cytosol of recombinant CHO cells; Table 2
Protocol: Compounds are tested for their estrogen receptor activity in a binding assay and in a transactivation assay.
Determination of competitive binding to cytoplasmic human estrogen receptor α or β from recombinant CHO cells is used to estimate the relative affinity (potency ratio) of a test compound for estrogen receptors present in the cytosol of recombinant Chinese hamster ovary (CHO) cells, stably transfected with the human estrogen receptor α (hERα) or β receptor (hERβ), as compared with estradiol (E2).

## 10-chloro-1,1-dimethyl-2,8-dihydroxy-11H-indeno[1,2-b]quinoline [Compound 7d]
  Binding ERβ: +++ (between 3.5-8%)
